Assay results from ChEMBL document CHEMBL5154945, “Discovery and Optimization of Pyrrolopyrimidine Derivatives as Selective Disruptors of the Perinucleolar Compartment, a Marker of Tumor Progression toward Metastasis” (J Med Chem, 2022).

Test: in vitro
Conditions: CD1, mouse, liver microsomes

Q: For `COc1ccc(-c2c(-c3ccc(OC)cc3)n(Cc3ccccc3)c3ncn(CCCO)c(=N)c23)cc1`, which half-life at 1 h is on record?
A: 21.6 min
